Source: ChEMBL document CHEMBL1134413, “Effect of N-alkyl and N-alkenyl substituents in noroxymorphindole, 17-substituted-6,7-dehydro-4,5alpha-epoxy-3,14-dihydroxy-6,7:2',3'-indolomorphinans, on opioid receptor affinity, selectivity, and efficacy” (J Med Chem, 2001)

Amino acid sequences for entries named in this document (tags omitted).
UniProt P41143, whole entry, looked up: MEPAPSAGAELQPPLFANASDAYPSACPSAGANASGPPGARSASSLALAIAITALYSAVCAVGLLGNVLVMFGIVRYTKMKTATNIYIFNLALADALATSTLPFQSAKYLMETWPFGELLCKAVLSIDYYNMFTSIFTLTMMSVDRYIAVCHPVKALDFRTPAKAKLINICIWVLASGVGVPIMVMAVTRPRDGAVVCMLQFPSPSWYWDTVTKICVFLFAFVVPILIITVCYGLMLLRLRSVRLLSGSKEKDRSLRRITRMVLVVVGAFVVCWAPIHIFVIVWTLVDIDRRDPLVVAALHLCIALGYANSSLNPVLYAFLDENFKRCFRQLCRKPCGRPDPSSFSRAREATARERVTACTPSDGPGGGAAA
UniProt P35372, whole entry, looked up: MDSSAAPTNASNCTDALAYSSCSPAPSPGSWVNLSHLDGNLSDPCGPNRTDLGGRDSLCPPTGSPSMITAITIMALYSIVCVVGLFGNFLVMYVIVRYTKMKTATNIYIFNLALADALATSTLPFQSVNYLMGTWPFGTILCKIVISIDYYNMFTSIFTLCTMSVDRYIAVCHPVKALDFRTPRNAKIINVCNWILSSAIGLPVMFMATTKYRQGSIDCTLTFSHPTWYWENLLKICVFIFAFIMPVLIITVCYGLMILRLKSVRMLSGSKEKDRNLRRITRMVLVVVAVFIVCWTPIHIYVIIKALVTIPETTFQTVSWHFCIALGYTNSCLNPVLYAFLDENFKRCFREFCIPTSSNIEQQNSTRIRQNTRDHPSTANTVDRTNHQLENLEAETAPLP

Target: Opioid receptors; mu & delta (Homo sapiens) (UniProt P41143+P35372)
Experiment: Selectivity ratio (mu/delta) of the compound
Type: functional

Cl.Oc1ccc2c3c1O[C@H]1c4[nH]c5ccccc5c4C[C@@]4(O)[C@@H](C2)N(CC2CC2)CC[C@]314 [NALTRINDOLE HYDROCHLORIDE]
Ratio: 90
